pEC50: −log10 of the molar value.
Columns and labels:
[1] = tested on: Ptch+/-p53-/- mice tumors (MB); assay: Anti-tumor activity in Ptch+/-p53-/- mice (medulloblastoma model)
[2] = target: SMO (Homo sapiens, UniProt Q99835); assay: SMO BODIPY-CYC binding assay using HEK293H cells
[3] = tested on: Hedgehog signalling (Gli-bla NIH3T3 cells, mShh stimulated); assay: Hedgehog signalling inhibition assay (Gli-Bla reporter assay in NIH 3T3 cells)
[4] = assay not given, fits BODIPY-CYC values of Table 2

By UniProt entry, the sequences of proteins in these tests, tags left out. Residues count along the entry.
UniProt Q99835, 28-787 limits assumed: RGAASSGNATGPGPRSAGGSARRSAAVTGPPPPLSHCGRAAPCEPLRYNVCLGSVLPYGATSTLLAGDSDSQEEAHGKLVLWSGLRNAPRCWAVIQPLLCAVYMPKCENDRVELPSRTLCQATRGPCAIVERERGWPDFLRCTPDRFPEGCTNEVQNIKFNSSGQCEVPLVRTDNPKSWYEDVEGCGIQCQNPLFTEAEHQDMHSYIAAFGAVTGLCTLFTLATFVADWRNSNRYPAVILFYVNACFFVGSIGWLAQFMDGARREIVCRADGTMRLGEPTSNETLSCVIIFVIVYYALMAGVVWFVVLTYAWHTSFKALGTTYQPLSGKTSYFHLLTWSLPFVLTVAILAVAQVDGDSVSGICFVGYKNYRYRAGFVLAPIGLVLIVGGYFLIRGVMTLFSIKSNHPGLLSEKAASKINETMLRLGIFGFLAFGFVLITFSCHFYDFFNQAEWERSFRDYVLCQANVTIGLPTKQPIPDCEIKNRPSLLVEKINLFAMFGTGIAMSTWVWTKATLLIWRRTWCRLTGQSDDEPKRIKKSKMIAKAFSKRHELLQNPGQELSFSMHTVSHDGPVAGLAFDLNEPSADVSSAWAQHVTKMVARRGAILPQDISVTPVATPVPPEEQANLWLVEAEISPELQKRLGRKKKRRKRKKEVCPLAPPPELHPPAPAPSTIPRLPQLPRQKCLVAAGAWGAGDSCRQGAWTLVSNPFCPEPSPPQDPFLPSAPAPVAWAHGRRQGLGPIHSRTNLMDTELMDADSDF

- increase in potency over GOC-0449 [2, 4]: 5 fold
- pEC50 ([2]; read-out: BODIPY-CYC binding assay (EC50), HEK293H cells): 9.11
Structure (SMILES): O=C(Nc1cc(NC(=O)c2ccc(N3CCCS3(=O)=O)cc2Cl)ccc1Cl)c1cccc(Cl)c1 [Example 120]
- activity against MB formation [1]: highly active against MB formation
- anti-tumor activity (tumor size) ([1]; FIG. 3): anti-tumor activity
- degree of anti-tumor activity compared with GDC-0449 ([1]; relative tumor size at day 7, FIG. 5): greater than that of GDC-0449
- potency compared with Sant-I [2, 4]: approximately equivalent potency to Sant-I
- greater potency than either GDC-0449 or Sant-I ([3]; Gli-Bla assay): 3 orders of magnitude
- pEC50 ([3]; read-out: Gli-Bla reporter assay (EC50), NIH 3T3 cells): 11.30

Source: patent US10183013B2, “Cyclic sulfonamide containing derivatives as inhibitors of hedgehog signaling pathway” (NantBioScience, Inc., priority 2012, dated 2019)
